Experimental data as given in ChEMBL document CHEMBL5126593, “Design, Synthesis, and Biological Evaluation of a Novel Series of 4-Guanidinobenzoate Derivatives as Enteropeptidase Inhibitors with Low Systemic Exposure for the Treatment of Obesity” (J Med Chem, 2022).

Sequences of proteins named here, by UniProt entry; tags and fusion partners are left off. A change or cut given only in a name is not applied to a line headed by its entry.
UniProt P98073: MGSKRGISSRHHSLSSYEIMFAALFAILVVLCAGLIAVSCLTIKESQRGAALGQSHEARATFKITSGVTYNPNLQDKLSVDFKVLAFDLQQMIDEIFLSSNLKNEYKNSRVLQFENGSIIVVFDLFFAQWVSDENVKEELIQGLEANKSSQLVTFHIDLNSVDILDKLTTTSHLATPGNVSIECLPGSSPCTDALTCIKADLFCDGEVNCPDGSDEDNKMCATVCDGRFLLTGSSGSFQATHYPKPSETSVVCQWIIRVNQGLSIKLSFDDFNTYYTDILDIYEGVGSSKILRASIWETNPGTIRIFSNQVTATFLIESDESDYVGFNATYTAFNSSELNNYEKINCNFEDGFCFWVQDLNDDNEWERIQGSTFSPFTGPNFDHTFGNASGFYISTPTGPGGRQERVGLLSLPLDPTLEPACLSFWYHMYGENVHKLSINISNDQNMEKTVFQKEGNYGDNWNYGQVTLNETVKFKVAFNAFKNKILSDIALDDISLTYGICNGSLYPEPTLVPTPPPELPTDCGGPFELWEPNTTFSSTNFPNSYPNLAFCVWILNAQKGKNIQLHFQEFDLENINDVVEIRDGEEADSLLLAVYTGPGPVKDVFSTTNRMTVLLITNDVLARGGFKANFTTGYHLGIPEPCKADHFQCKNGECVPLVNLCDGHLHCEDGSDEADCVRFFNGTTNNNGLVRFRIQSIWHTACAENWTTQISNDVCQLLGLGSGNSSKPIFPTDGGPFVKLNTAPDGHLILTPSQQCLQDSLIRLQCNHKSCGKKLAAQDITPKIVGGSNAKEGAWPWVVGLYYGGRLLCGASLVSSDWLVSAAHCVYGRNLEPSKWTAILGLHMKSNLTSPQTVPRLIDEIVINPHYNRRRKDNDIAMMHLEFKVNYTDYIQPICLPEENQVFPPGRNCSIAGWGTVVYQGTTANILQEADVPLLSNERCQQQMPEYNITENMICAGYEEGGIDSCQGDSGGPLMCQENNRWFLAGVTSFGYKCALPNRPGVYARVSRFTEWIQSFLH

Biological target: Enteropeptidase (Homo sapiens) (UniProt P98073)
Assay: Inhibition of human recombinant Enteropeptidase assessed as inhibition based on initial velocity using 5FAM-Abu-Gly-Asp -Asp-Asp -Lys-Ile-Val-Gly-Gly-Lys-(CPQ2)-Lys-Lys-NH2 as substrate by fluorescence based plate reader method
Conditions: TDE = time-dependent effect
Procedure, shortened: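 Human recombinant enzyme prepared as a 24 mU/mL solution in 50 mM tricine pH 8.0, 0.01% Tween 20, 10 mM CaCl2. Compound in DMSO/buffer mixed with 2.1 μM substrate solution; enzyme added to start the reaction at room temperature. Fluorescence (ex 485/em 535 nm) read at 6 min. Inhibition taken relative to no-compound and no-enzyme controls. IC50 with 95% CI.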

SMILES: Cc1cc(OC(=O)c2ccc(NC(=N)N)cc2)no1
- inhibition: Tde
